# Values quoted from earlier work, collected in PMC3299805.
# By UniProt entry, the sequences of proteins in these tests, tags left out. Where a name states a change or a piece, a line headed by the entry shows the natural chain unless it says otherwise. Residues count along the entry.
# UniProt Q00560: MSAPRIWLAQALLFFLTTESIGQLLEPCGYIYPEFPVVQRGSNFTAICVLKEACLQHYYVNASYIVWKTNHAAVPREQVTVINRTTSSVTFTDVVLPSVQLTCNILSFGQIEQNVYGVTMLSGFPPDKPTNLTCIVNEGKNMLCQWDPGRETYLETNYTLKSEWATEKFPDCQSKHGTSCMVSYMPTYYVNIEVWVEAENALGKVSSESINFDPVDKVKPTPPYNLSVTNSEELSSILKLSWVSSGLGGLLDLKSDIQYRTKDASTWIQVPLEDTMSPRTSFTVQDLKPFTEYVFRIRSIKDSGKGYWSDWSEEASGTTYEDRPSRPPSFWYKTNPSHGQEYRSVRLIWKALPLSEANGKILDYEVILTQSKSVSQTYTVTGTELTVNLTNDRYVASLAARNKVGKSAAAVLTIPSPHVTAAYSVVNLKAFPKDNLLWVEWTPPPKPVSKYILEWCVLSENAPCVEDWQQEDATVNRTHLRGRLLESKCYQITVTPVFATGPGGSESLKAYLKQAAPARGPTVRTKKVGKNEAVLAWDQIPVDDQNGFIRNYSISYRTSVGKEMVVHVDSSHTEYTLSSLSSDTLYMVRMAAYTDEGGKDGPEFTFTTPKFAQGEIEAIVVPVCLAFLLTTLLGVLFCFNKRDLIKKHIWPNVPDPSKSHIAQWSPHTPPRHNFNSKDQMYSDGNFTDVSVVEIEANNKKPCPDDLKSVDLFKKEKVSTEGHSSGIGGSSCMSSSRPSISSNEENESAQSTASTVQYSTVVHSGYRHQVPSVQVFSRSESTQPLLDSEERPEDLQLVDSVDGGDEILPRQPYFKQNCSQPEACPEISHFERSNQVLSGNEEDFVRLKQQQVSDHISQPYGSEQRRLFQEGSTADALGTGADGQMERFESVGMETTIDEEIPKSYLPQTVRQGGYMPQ
# UniProt O35718, 43-145: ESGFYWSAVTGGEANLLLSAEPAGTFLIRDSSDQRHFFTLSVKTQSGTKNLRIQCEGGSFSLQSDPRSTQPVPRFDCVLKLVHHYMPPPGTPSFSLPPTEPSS
# Target: gp130 phosphopeptide 750-764 (Mus musculus) (UniProt Q00560)
substance,measurement,value
SOCS3 SH2 (from UniProt O35718),pKd,7.00

# pKd: −log10 of the molar value.
